The record followed here is BindingDB's records for doi:10.1073/pnas.86.24.9762 (Oregon Health Sciences University, 1989).

The chains behind the UniProt entries cited, without tags or fusion partners.
UniProt P61169, whole entry: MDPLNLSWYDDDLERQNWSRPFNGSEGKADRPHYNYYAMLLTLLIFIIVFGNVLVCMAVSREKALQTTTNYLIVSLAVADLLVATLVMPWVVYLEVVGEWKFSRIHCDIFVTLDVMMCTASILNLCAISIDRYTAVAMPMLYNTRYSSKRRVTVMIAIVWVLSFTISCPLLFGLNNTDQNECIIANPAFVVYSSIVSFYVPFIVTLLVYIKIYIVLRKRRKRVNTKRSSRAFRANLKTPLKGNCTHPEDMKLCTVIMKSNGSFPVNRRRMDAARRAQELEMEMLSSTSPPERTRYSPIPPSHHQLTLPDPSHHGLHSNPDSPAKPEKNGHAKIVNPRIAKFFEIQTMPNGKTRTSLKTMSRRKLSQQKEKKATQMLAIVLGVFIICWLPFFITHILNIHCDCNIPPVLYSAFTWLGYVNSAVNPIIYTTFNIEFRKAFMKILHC

For the experiment, the target named is D(2) dopamine receptor (Rattus norvegicus, UniProt P61169).

Values joined by “and” are separate entries in the source; they are usually repeats but may differ in a detail not shown here. Equal values may be shown once.

One may read the Ki as the equilibrium dissociation constant of an inhibitor or competing ligand from its target. In the case of `CN1CCN2c3ccccc3Cc3ccccc3[C@H]2C1` [MIANSERIN (+)], the Ki was 4.3 µM and 4.6 µM.
